## Binding of CDR-mutated scFvs to a peptide of the spike HR2 region

Data: MIT Lincoln Laboratory AlphaSeq set, Engelhart et al. 2022, doi:10.1038/s41597-022-01779-4, as distributed in FLAb.

Target peptide (SARS-CoV-2 spike, HR2 region): PDVDLGDISGINAS

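Phage display of a naive human antibody library on the peptide gave the parent. AAYL49 was designed without a model: most single CDR substitutions and a random sample of double and triple ones. In AlphaSeq, yeast of one mating type display the scFv and yeast of the other type display the target. After mating in shaken culture at 30 °C for 16 h, diploids were selected and their barcode pairs sequenced. A regression on co-assayed BCL2-family reference pairs converts the normalised counts of each replicate to an apparent Kd. There are three technical replicates.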

The variants keep the light chain, the linker and the frameworks of Ab-14 (scFv order VH, three GGGGS repeats, VL).
VH: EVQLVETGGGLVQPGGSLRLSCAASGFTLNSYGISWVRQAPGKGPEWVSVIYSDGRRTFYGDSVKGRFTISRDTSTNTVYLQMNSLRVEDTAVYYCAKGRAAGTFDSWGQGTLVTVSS
VL: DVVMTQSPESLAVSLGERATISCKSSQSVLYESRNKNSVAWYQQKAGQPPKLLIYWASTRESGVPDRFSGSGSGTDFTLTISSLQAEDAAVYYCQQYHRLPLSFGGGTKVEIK

Substitutions are numbered in sequence along the VH above, starting at 1 (not Kabat). Values are log10 of the apparent Kd in nM; lower means stronger binding. The mean shown is taken over the replicates in which the pair was detected. "no signal" marks a missing value. The strain was present, yet no cells mated with the target were sequenced in any replicate, which points to weak or no binding. Three control strains display no target. For library AAYL49, 15% of the pairings with them gave a signal, with a median of 4.06 and one signal in twenty below 2.83, so weak values seen in few replicates may be background.

changes	log10 Kd (nM), mean	seen in
I34K V50H G61V	no signal	0/3
G26K S31H T58Q	2.64	3/3
S31T T104V F105W	0.49	3/3
S35R S53W A101W	no signal	0/3
Y32G D54N A102F	no signal	0/3
D54M G55S D106W	no signal	0/3
Y32M I51V	4.27	2/3
G26I G33N I34A	no signal	0/3
S31G R57S D62P	4.31	1/3
F27C I51V T104H	no signal	0/3
G26Q T28P S35W	1.33	1/3
G33D V50A R57D	no signal	0/3
G33W V50N T104V	no signal	0/3
L29Y R57Q D62R	no signal	0/3
S31L A101K S107E	no signal	0/3
L29D R56P V64I	no signal	0/3
G26K G99D	5.81	1/3
V50L R57T F59M	no signal	0/3
I34E D62A F105C	no signal	0/3
L29Y D62I V64E	4.50	2/3
Y60L S63M R100D	no signal	0/3
V50N A101H D106Q	no signal	0/3
S53E G103M	5.96	1/3
I51Y D54A A101L	no signal	0/3
D62R G103D F105P	no signal	0/3
L29P I34H S53G	4.48	2/3
G61H A102V	no signal	0/3
Y52L G55T A102F	no signal	0/3
G33W G103A D106S	no signal	0/3
L29K S35V F105A	5.05	2/3
F27C S31W S53L	3.28	1/3
N30T V50N D106R	no signal	0/3
Y32H I51P	4.22	3/3
S35Q I51D G103V	no signal	0/3
F27Q S31N S63T	2.16	3/3
V64E T104S	6.06	1/3
G26H D62F F105Y	4.24	3/3
S35K D62S	no signal	0/3
N30M T58V D62C	no signal	0/3
F27C T28N G99H	3.87	1/3
Y32W S35I A102P	no signal	0/3
Y32I G61L G99H	2.28	1/3
I34T V50F T104Y	4.63	1/3
V64Y G103T F105G	5.79	1/3
F59Y K65Y S107V	no signal	0/3
G33L T58S A101P	4.31	3/3
T58F S107P	2.33	3/3
Y32S D54N G103M	4.79	3/3
G33L V50H R57K	4.10	3/3
V50K T58K	no signal	0/3
D54L Y60L R100H	no signal	0/3
I51L S63C S107P	3.02	1/3
V64N K65R T104H	no signal	0/3
G55N T58A T104V	no signal	0/3
S31F Y32S	no signal	0/3

Repeated from above, the 5 best binders with a signal in all replicates:

| changes | log10 Kd (nM), mean | seen in |
|---|---|---|
| S31T T104V F105W | 0.49 | 3/3 |
| F27Q S31N S63T | 2.16 | 3/3 |
| T58F S107P | 2.33 | 3/3 |
| G26K S31H T58Q | 2.64 | 3/3 |
| G33L V50H R57K | 4.10 | 3/3 |